Literature values, collected in patent US20100248223A1, “ASSESSING OUTCOMES FOR BREAST CANCER PATIENTS” (MAYO FOUNDATION FOR MEDICAL EDUCATION AND RESEARCH, priority 2006, published 2010).

Protein sequences, listed by entry. Tags and fused reporters are not part of them.
UniProt P10635, whole entry: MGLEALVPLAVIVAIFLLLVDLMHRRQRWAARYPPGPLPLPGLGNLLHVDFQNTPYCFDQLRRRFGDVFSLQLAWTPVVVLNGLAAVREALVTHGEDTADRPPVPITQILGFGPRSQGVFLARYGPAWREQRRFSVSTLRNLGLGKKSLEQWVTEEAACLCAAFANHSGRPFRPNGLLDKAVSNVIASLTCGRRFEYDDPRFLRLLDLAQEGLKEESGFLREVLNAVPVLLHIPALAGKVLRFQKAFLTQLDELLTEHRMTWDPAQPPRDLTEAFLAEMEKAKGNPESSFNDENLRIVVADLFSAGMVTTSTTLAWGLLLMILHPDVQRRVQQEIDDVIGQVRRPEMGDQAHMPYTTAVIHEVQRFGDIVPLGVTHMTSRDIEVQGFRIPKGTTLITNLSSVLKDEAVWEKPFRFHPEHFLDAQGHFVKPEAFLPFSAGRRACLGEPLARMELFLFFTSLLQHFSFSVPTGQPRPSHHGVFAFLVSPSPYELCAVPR

Target: CYP2D6 enzyme system (Homo sapiens, UniProt P10635)
Details: classification from cited literature; cited from earlier work

CNCCC(Oc1ccc(C(F)(F)F)cc1)c1ccccc1 (stereo not shown) [fluoxetine]
strength of inhibition of the CYP2D6 enzyme system: potent
